Reference: ChEMBL document CHEMBL1134266, “Design and pharmacology of quinuclidine derivatives as M2-selective muscarinic receptor ligands” (Bioorg Med Chem Lett, 2001)

What was measured:
[1] = target: Muscarinic acetylcholine receptor M3 (Homo sapiens, UniProt P20309); experiment: Affinity for Muscarinic acetylcholine receptor M3 expressed in CHO cells by [3H]-NMS displacement.
[2] = target: Muscarinic acetylcholine receptor M1 (Homo sapiens, UniProt P11229); experiment: Affinity for Muscarinic acetylcholine receptor M1 expressed in CHO cells by [3H]NMS displacement.
[3] = target: Muscarinic acetylcholine receptor M4 (Homo sapiens, UniProt P08173); experiment: Affinity for Muscarinic acetylcholine receptor M4 expressed in CHO cells by [3H]NMS displacement.
[4] = target: Muscarinic acetylcholine receptor M5 (Homo sapiens, UniProt P08912); experiment: Affinity for Muscarinic acetylcholine receptor M5 expressed in CHO cells by [3H]NMS displacement.
[5] = target: Muscarinic acetylcholine receptor M2 (Homo sapiens, UniProt P08172); experiment: Affinity for Muscarinic acetylcholine receptor M2 expressed in CHO cells by [3H]NMS displacement.

| Compound | Log Ki [1] | Log Ki [2] | Log Ki [3] | Log Ki [4] | Log Ki [5] |
| --- | --- | --- | --- | --- | --- |
| O=C(OC1CN2CCC1CC2)C1=C/C(=C\c2cccnc2)c2ccccc21 (stereo not given) | -5.77 | -6.05 | -5.91 | -5.91 | -6.38 |
| O=C(OC1CN2CCC1CC2)C1=C/C(=C\c2ccccn2)c2ccccc21 (stereo not given) | -5.76 | -5.83 | -5.77 | -6.01 | -6.49 |
| O=C(OC1CN2CCC1CC2)C1=C/C(=C\c2ccncc2)c2ccccc21 (stereo not given) | -5.68 | -5.9 | -5.74 | -5.98 | -6.48 |
